Results on one molecule are retold here after ChEMBL document CHEMBL1153387 (J Med Chem, 2009).

Amino acid sequences for entries named in this document (tags omitted).
UniProt P30989, whole entry: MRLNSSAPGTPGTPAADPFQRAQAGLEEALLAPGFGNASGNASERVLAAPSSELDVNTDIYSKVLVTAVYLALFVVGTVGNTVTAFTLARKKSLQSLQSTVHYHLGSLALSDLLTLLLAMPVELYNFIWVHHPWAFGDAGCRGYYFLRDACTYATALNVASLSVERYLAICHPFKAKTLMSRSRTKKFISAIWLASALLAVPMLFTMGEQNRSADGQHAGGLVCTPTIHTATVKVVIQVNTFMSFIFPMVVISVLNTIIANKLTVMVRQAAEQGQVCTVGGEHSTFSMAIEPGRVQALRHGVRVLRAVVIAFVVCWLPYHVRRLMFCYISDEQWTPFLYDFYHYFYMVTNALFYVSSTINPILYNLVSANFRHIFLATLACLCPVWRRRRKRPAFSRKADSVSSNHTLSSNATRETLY

Assay [1] concerns the target T1, Neurotensin receptor type 1 (Homo sapiens, UniProt P30989). In words: Displacement of [125I]I-Tyr(3)NT from human NTR1. (Displacement assays read how much labelled ligand stays bound in the presence of the test substance.)
The target in assay [2] is T1, Neurotensin receptor type 1. Kind of assay: Agonist activity at NTR1 in human HT-29 cells assessed as increase in intracellular calcium concentration by FLIPR assay. It is filed as functional, cell-based. Background: Calcium assays in cells follow changes in intracellular calcium, usually with a dye or a luminescent sensor.

One may read the IC50 as the point on the concentration scale where inhibition reaches its midpoint. Higher therefore signals lower potency. As usually defined, the Ki is the equilibrium dissociation constant of an inhibitor or competing ligand from its target. A low value points to a stronger hold on the target. By EC50 is commonly meant the concentration that produces a half-maximal response. In the case of `CC[C@H](C)[C@H](NC(=O)[C@H](Cc1ccc(O)cc1)NC(=O)[C@@H]1CCCN1C(=O)[C@H](CCCNC(=N)N)NC(=O)[C@H](CCCNC(=N)N)NC(C)=O)C(=O)N[C@@H](CC(C)C)C(=O)O`, in assay [1], the IC50 was 2.42 nM and the affinity, expressed as Ki, was 1.81 nM. Moreover, the EC50 in assay [2] was 1.89 nM.
